Laboratory results as given in ChEMBL document CHEMBL1131291, “Rational design, synthesis, and X-ray structure of selective noncovalent thrombin inhibitors” (J Med Chem, 1998).

Target: Prothrombin (Homo sapiens, UniProt P00734)
Test: In vitro inhibition was measured against Human Thrombin.
Procedure, shortened: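 α-Thrombin was used at 160 pM final, with Pefachrome TH chromogenic substrate. Buffer was 100 mM sodium phosphate pH 7.4, 100 mM NaCl and 0.1% BSA, at 25 °C. Inhibitor was taken from a cremophor/ethanol 1:1 stock diluted with water to 1 mM. Enzyme was added last. p-Nitroaniline release was followed at 405 nm for 30 min. Ki came from a weighted Dixon regression; triplicate, mean ± SD.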

## N=C(N)NCCCNC(=O)[C@@H]1CS[C@H]2CC[C@@H](NS(=O)(=O)Cc3ccccc3)C(=O)N21
  Ki: 145 nM

## N=C(N)NCCCNC(=O)[C@@H]1CS[C@H]2CC[C@H](NS(=O)(=O)c3cccc4ccccc34)C(=O)N21
  Ki: 1450 nM
